Source: PubChem BioAssay (NCI)
Some results for these compounds are left out of this collection, so the calls shown say nothing about other tests.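 Where inhibition never reached the appropriate level, the endpoint shown equals the highest concentration tested. Otherwise, values were interpolated linearly from a five-concentration, 48-hour dose response in 96-well plates. Here, GI50 denotes the concentration required for 50% inhibition of growth. TGI: total growth inhibition.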

Tests used:
Assay in all cases: DTP human tumour cell line panel, 48 h
786-0 renal = system: 786-0 renal
A498 renal = system: A498 renal
A549 NSCLC = system: A549 NSCLC
ACHN renal = system: ACHN renal
BT-549 breast = system: BT-549 breast
CAKI-1 renal = system: CAKI-1 renal
CCRF-CEM leukemia = system: CCRF-CEM leukemia
COLO 205 colon = system: COLO 205 colon
DU-145 prostate = system: DU-145 prostate
EKVX NSCLC = system: EKVX NSCLC
HCT-116 colon = system: HCT-116 colon
HCT-15 colon = system: HCT-15 colon
HL-60(TB) leukemia = system: HL-60(TB) leukemia
HOP-62 NSCLC = system: HOP-62 NSCLC
HOP-92 NSCLC = system: HOP-92 NSCLC
HS 578T breast = system: HS 578T breast
HT29 colon = system: HT29 colon
IGROV1 ovarian = system: IGROV1 ovarian
K-562 leukemia = system: K-562 leukemia
LOX IMVI melanoma = system: LOX IMVI melanoma
M14 melanoma = system: M14 melanoma
MALME-3M melanoma = system: MALME-3M melanoma
MCF7 breast = system: MCF7 breast
MDA-MB-231 breast = system: MDA-MB-231 breast
MDA-MB-435 = system: MDA-MB-435
MDA-N = system: MDA-N
MOLT-4 leukemia = system: MOLT-4 leukemia
NCI-H226 lung = system: NCI-H226 lung
NCI-H23 lung = system: NCI-H23 lung
NCI-H322M lung = system: NCI-H322M lung
NCI-H522 lung = system: NCI-H522 lung
NCI/ADR-RES ovarian = system: NCI/ADR-RES ovarian
OVCAR-3 ovarian = system: OVCAR-3 ovarian
OVCAR-4 ovarian = system: OVCAR-4 ovarian
OVCAR-5 ovarian = system: OVCAR-5 ovarian
OVCAR-8 ovarian = system: OVCAR-8 ovarian
PC-3 prostate = system: PC-3 prostate
RPMI-8226 leukemia = system: RPMI-8226 leukemia
RXF 393 renal = system: RXF 393 renal
SF-268 CNS = system: SF-268 CNS
SF-295 CNS = system: SF-295 CNS
SF-539 CNS = system: SF-539 CNS
SK-MEL-2 melanoma = system: SK-MEL-2 melanoma
SK-MEL-28 melanoma = system: SK-MEL-28 melanoma
SK-MEL-5 melanoma = system: SK-MEL-5 melanoma
SK-OV-3 ovarian = system: SK-OV-3 ovarian
SN12C renal = system: SN12C renal
SNB-19 CNS = system: SNB-19 CNS
SNB-75 CNS = system: SNB-75 CNS
SR leukemia = system: SR leukemia
T-47D breast = system: T-47D breast
TK-10 renal = system: TK-10 renal
U251 CNS = system: U251 CNS
UACC-257 melanoma = system: UACC-257 melanoma
UACC-62 melanoma = system: UACC-62 melanoma
UO-31 renal = system: UO-31 renal

CC(C)C#CC(O)(C(=O)OC1C2CCN(CC2)C1C)C1CCCCC1 (configuration not stated)
GI50 (786-0 renal): 75.1 µM
TGI (786-0 renal): > 100 µM
GI50 (A498 renal): > 100 µM
TGI (A498 renal): > 100 µM
GI50 (A549 NSCLC): > 100 µM
TGI (A549 NSCLC): > 100 µM
GI50 (ACHN renal): > 100 µM
TGI (ACHN renal): > 100 µM
GI50 (BT-549 breast): > 100 µM
TGI (BT-549 breast): > 100 µM
GI50 (CAKI-1 renal): > 100 µM
TGI (CAKI-1 renal): > 100 µM
GI50 (CCRF-CEM leukemia): 48.9 µM
TGI (CCRF-CEM leukemia): > 100 µM
GI50 (COLO 205 colon): 32.6 µM
TGI (COLO 205 colon): > 100 µM
GI50 (DU-145 prostate): > 100 µM
TGI (DU-145 prostate): > 100 µM
GI50 (EKVX NSCLC): > 100 µM
TGI (EKVX NSCLC): > 100 µM
GI50 (HCT-116 colon): 89.3 µM
TGI (HCT-116 colon): > 100 µM
GI50 (HCT-15 colon): > 100 µM
TGI (HCT-15 colon): > 100 µM
GI50 (HL-60(TB) leukemia): 37.6 µM
TGI (HL-60(TB) leukemia): > 100 µM
GI50 (HOP-62 NSCLC): > 100 µM
TGI (HOP-62 NSCLC): > 100 µM
GI50 (HOP-92 NSCLC): 29.9 µM
TGI (HOP-92 NSCLC): > 100 µM
GI50 (HS 578T breast): 38.9 µM
TGI (HS 578T breast): > 100 µM
GI50 (HT29 colon): 25.9 µM
TGI (HT29 colon): 97.1 µM
GI50 (IGROV1 ovarian): 73.9 µM
TGI (IGROV1 ovarian): > 100 µM
GI50 (K-562 leukemia): 24.8 µM
TGI (K-562 leukemia): 57.6 µM
GI50 (LOX IMVI melanoma): 34.4 µM
TGI (LOX IMVI melanoma): > 100 µM
GI50 (M14 melanoma): 15.9 µM
TGI (M14 melanoma): 30 µM
GI50 (MALME-3M melanoma): 28.4 µM
TGI (MALME-3M melanoma): 85.5 µM
GI50 (MCF7 breast): 81.8 µM
TGI (MCF7 breast): > 100 µM
GI50 (MDA-MB-231 breast): 44.9 µM
TGI (MDA-MB-231 breast): > 100 µM
GI50 (MDA-MB-435): > 100 µM
TGI (MDA-MB-435): > 100 µM
GI50 (MDA-N): 95.9 µM
TGI (MDA-N): > 100 µM
GI50 (MOLT-4 leukemia): 41.3 µM
TGI (MOLT-4 leukemia): > 100 µM
GI50 (NCI-H226 lung): 63.6 µM
TGI (NCI-H226 lung): > 100 µM
GI50 (NCI-H23 lung): > 100 µM
TGI (NCI-H23 lung): > 100 µM
GI50 (NCI-H322M lung): > 100 µM
TGI (NCI-H322M lung): > 100 µM
GI50 (NCI-H522 lung): 76.5 µM
TGI (NCI-H522 lung): > 100 µM
GI50 (NCI/ADR-RES ovarian): > 100 µM
TGI (NCI/ADR-RES ovarian): > 100 µM
GI50 (OVCAR-3 ovarian): 97.8 µM
TGI (OVCAR-3 ovarian): > 100 µM
GI50 (OVCAR-4 ovarian): 51.4 µM
TGI (OVCAR-4 ovarian): > 100 µM
GI50 (OVCAR-5 ovarian): 65.4 µM
TGI (OVCAR-5 ovarian): > 100 µM
GI50 (OVCAR-8 ovarian): > 100 µM
TGI (OVCAR-8 ovarian): > 100 µM
GI50 (PC-3 prostate): 48 µM
TGI (PC-3 prostate): > 100 µM
GI50 (RPMI-8226 leukemia): 47.6 µM
TGI (RPMI-8226 leukemia): > 100 µM
GI50 (RXF 393 renal): 21.4 µM
TGI (RXF 393 renal): > 100 µM
GI50 (SF-268 CNS): 81.4 µM
TGI (SF-268 CNS): > 100 µM
GI50 (SF-295 CNS): > 100 µM
TGI (SF-295 CNS): > 100 µM
GI50 (SF-539 CNS): 79.5 µM
TGI (SF-539 CNS): > 100 µM
GI50 (SK-MEL-2 melanoma): > 100 µM
TGI (SK-MEL-2 melanoma): > 100 µM
GI50 (SK-MEL-28 melanoma): 35.2 µM
TGI (SK-MEL-28 melanoma): > 100 µM
GI50 (SK-MEL-5 melanoma): 18.2 µM
TGI (SK-MEL-5 melanoma): 32.6 µM
GI50 (SK-OV-3 ovarian): > 100 µM
TGI (SK-OV-3 ovarian): > 100 µM
GI50 (SN12C renal): > 100 µM
TGI (SN12C renal): > 100 µM
GI50 (SNB-19 CNS): > 100 µM
TGI (SNB-19 CNS): > 100 µM
GI50 (SNB-75 CNS): 37 µM
TGI (SNB-75 CNS): > 100 µM
GI50 (SR leukemia): 34.8 µM
TGI (SR leukemia): 62.9 µM
GI50 (T-47D breast): > 100 µM
TGI (T-47D breast): > 100 µM
GI50 (TK-10 renal): 62.6 µM
TGI (TK-10 renal): > 100 µM
GI50 (U251 CNS): > 100 µM
TGI (U251 CNS): > 100 µM
GI50 (UACC-257 melanoma): 15.8 µM
TGI (UACC-257 melanoma): 34.2 µM
GI50 (UACC-62 melanoma): > 100 µM
TGI (UACC-62 melanoma): > 100 µM
GI50 (UO-31 renal): 54.2 µM
TGI (UO-31 renal): > 100 µM
